Source: PubChem BioAssay
PglD DTNB: inhibitors of Campylobacter jejuni PglD acetyltransferase | purified PglD enzyme, DTNB colorimetric CoA detection | inhibition, % at 12.5 µM | actives 0.098% (n = 360,000); in the data active = inhibition above about 16%, passing the limit was not always enough
UUG fidelity: modulators of start codon recognition fidelity in yeast. S. cerevisiae UUG-firefly luciferase reporter, luminescence/redox ratio. activity score, % at 18.7 µM. 0.13% of 350,000 active. AID 602363;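 active = replicate mean at a twofold rise or more, about +100% in these data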;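 also: firefly luciferase made from a UUG start codon reports start codon fidelity; reporter light over untreated wells divided by growth signal over untreated wells; some hits fall short of that in this replicate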
EWS-Fli block: blocks EWS/Fli oncoprotein-driven transcription; A673 NR0B1-luciferase reporter, viability-normalised; inhibition, % at 12.6 µM; actives 0.67% (n = 350,000);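 active = mean inhibition of at least 50% after viability correction, with every replicate also passing that limit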;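 note: firefly luciferase signal divided by Alamar Blue viability fluorescence both relative to DMSO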
F508del corr: CFTR F508del correction in bronchial cells; CFBE cells, YFP halide quenching; stimulated with forskolin plus potentiator P3; % fluorescence drop versus neutral controls; activity (quench increase), % at 7.58 µM; actives 0.36% (n = 350,000);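 active = mean added fluorescence quench of at least 8% versus neutral control, with both replicates also reaching 8%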;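 note: cells transiently co-express mutant CFTR-F508del with the halide-sensitive YFP; corrector assay measuring rescue of mutant channel to the surface after 24 h compound exposure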
miR-122 sensor: miR-122 inhibition in Huh7 cells; Huh7 miR-122 Renilla luciferase sensor, 48 h; neutral wells = 0, positive control = 100; activation (reporter increase), % at 12.5 µM; actives 0.3% (n = 340,000);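 active = mean replicate activation score at least 90 and every replicate individually at or above 90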;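 note: higher luciferase means less miR-122 activity so hits act as miR-122 inhibitors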
LGR2 inh: Drosophila LGR2 receptor signaling inhibition | actives 0.35% (n = 380,000) | HEK293 LGR2, CRE-luciferase, bursicon-stimulated, 4 h | inhibition, % at 9.99 µM;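 active = drop in luminescence signal, shown as inhibition above about 50% in the replicate tests, limit read from the data, passing the limit was not always enough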;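 note: agonist challenge used bursicon conditioned medium at about half maximal strength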
* hit, by the source's call; . = not tested or not shown; [ ] = dose if it differs, or a comment. Shown are actives, neighbours in structure and some others; about 1.3% of the full set was active somewhere.

Screens by letter – A = PglD DTNB; B = UUG fidelity; C = EWS-Fli block; D = F508del corr; E = miR-122 sensor; F = LGR2 inh
1) C#CCOCCOCCOCCNc1nc(N2CCN(C(=O)[C@H]([C@@H](C)CC)n3cc(CCC(=O)O)nn3)CC2)nc(N2CCN(C(=O)[C@H](CCCCN)n3cc(CCCC)nn3)CC2)n1
  A: 2	B: 35	C: -12	D: 9.2*	E: .	F: -17

2) C#CCOCCOCCOCCNc1nc(N2CCN(C(=O)[C@H]([C@@H](C)CC)n3cc(CCCCN)nn3)CC2)nc(N2CCN(C(=O)[C@H](CCCCN)n3cc(CCCC)nn3)CC2)n1
  A: -7	B: 4	C: -9	D: 0	E: 6	F: -2

3) CC(=O)[C@@]1(O)Cc2c(O)c3c(c(O)c2[C@H](O[C@H]2C[C@H](N)[C@H](O)[C@H](C)O2)C1)C(=O)c1ccccc1C3=O
  A: 0	B: -16	C: 59*	D: 22*	E: -22	F: 98*

4) COc1cccc2c1C(=O)c1c(O)c3c(c(O)c1C2=O)C[C@@](O)(C(=O)CO)C[C@@H]3OC1CC(N)C(O)C(C)O1 (some centres not stated)
  A: .	B: .	C: 10	D: 14*	E: -16	F: .

5) COc1cccc2c1C(=O)c1c(O)c3c(c(O)c1C2=O)C[C@@](O)(C(=O)CO)C[C@@H]3O[C@H]1C[C@H](N)[C@H](O)[C@H](C)O1
  A: 3	B: -34	C: 47	D: 31*	E: -69	F: .

6) COc1cccc2c1C(=O)c1c(O)c3c(c(O)c1C2=O)CC(O)(C(C)=O)CC3OC1CC(N(C)C)C(O)C(C)O1 (configuration not stated)
  A: .	B: .	C: 65*	D: 34*	E: -21	F: 101*

7) C1=C(CCNc2ncnc3c2[nH]c2ccccc23)CCCC1
  A: .	B: .	C: -2	D: .	E: .	F: .

8) CCCC(=O)Nc1ccc2c(c1)C(=O)N(C)[C@H]1CC[C@H](CC(=O)NCCCN(C)C)O[C@H]1CO2
  A: 3	B: -13	C: -17	D: 2	E: -10[16.7 µM]	F: -8

9) Cc1ncc2c(c1OC(=O)c1ccc([N+](=O)[O-])cc1)COC(C)(C)OC2
  A: 2	B: -1	C: .	D: .	E: -2	F: 10

10) CCCc1cc(NC(=O)COC(=O)c2nccnc2N)n(-c2ccccc2)n1
  A: -7	B: -3	C: 3	D: -3	E: -8	F: .

11) C[C@@H]1CCCCO[C@H](CN(C)C(=O)CCCN(C)C)[C@@H](C)CN([C@@H](C)CO)C(=O)c2cc(NC(=O)Nc3ccc4c(c3)OCO4)ccc2O1
  A: -1	B: -7	C: -11	D: 1	E: 4[16.7 µM]	F: 11

12) NC1(C(=O)O)CC1
  A: -1	B: 8	C: 8	D: 17*	E: 0	F: -3

13) O=C(O)C1(C(=O)O)CCCC1
  A: 0	B: -14	C: -5	D: 1	E: -2	F: 3

14) COc1ccccc1C(=O)Nc1ccc(S(=O)(=O)Nc2cc(C)on2)cc1
  A: -3	B: -19	C: .	D: .	E: 7	F: .

15) COc1ccccc1NS(=O)(=O)c1ccc(C)c(C(=O)Nc2cc(C)on2)c1
  A: 1	B: .	C: 8	D: 8.8*	E: 1	F: 3

Values by screen from the entries so far:
LGR2 inh for nos. 2–11: -2, 98*, ., ., 101*, ., -8, 10, ., 11

Back to the main list; the 2 compounds before the break are reprinted first.
Screens by letter – A = PglD DTNB; B = UUG fidelity; C = EWS-Fli block; D = F508del corr; E = miR-122 sensor; F = LGR2 inh
14) COc1ccccc1C(=O)Nc1ccc(S(=O)(=O)Nc2cc(C)on2)cc1
  A: -3	B: -19	C: .	D: .	E: 7	F: .

15) COc1ccccc1NS(=O)(=O)c1ccc(C)c(C(=O)Nc2cc(C)on2)c1
  A: 1	B: .	C: 8	D: 8.8*	E: 1	F: 3

16) COc1ccc(Nc2oc(-c3ccccc3)nc2C#N)cc1
  A: 1	B: -13	C: -46	D: -2	E: 0	F: -49

17) C[C@H](CO)N1C[C@H](C)[C@@H](CN(C)Cc2cncnc2)Oc2cc(C#CC3CCCC3)ccc2S1(=O)=O
  A: 1	B: .	C: 20	D: 1	E: 95*[16.7 µM]	F: -6

18) COc1ccccc1C#Cc1ccc2c(c1)O[C@H](CN(C)Cc1cncnc1)[C@@H](C)CN([C@@H](C)CO)S2(=O)=O
  A: -2	B: 94	C: 15	D: 2	E: 2[16.7 µM]	F: 16

19) C[C@H]1CN([C@@H](C)CO)S(=O)(=O)c2ccc(C#CCN(C)C)cc2O[C@@H]1CN(C)Cc1ccc2c(c1)OCO2
  A: 4	B: 12	C: 10	D: -1	E: 104*[16.7 µM]	F: -7

20) C[C@@H]1CN([C@@H](C)CO)S(=O)(=O)c2ccc(C#CC3CCCC3)cc2O[C@H]1CN(C)C(=O)Cc1ccccc1
  A: 6	B: -5	C: -12	D: 2	E: 108*[16.7 µM]	F: 30

21) COc1ccccc1C#Cc1ccc2c(c1)O[C@H](CN(C)Cc1cccnc1)[C@H](C)CN([C@@H](C)CO)S2(=O)=O
  A: -2	B: .	C: 12	D: 8.2*	E: -39[16.7 µM]	F: 18

22) C[C@H]1CN([C@@H](C)CO)S(=O)(=O)c2ccc(C#CCN(C)C)cc2O[C@H]1CN(C)Cc1ccc2c(c1)OCO2
  A: -3	B: 32	C: 18	D: .	E: 7[16.7 µM]	F: 1

23) N#Cc1cccnc1N1CCN(C(=O)c2cccc3c2C(=O)c2ccc(-c4ccc(F)cc4OCc4ccccc4)cc2S3(=O)=O)CC1
  A: 4	B: -9	C: -1	D: -4	E: .	F: -27

24) Cc1c(Cl)cccc1NC(=S)N1CCC(C(N)=O)(N2CCCCC2)CC1
  A: .	B: .	C: 4	D: .	E: -13	F: 2

25) CC(=O)NC(=S)Nc1ccc(-c2nc3ccc(C)cc3s2)cc1
  A: 0	B: -9	C: -71	D: 0	E: 0	F: -59

26) Nc1ccc2nc(-c3ccccc3)sc2c1
  A: 3	B: -65	C: .	D: .	E: -5	F: .

27) CNC(=S)Nc1ccc(-c2nc3ccc(C)cc3s2)cc1
  A: -3	B: -24	C: -7	D: 1	E: 3	F: 53*

28) Cc1ccc2nc(-c3ccc(N)cc3)sc2c1
  A: 4	B: -52	C: 69*	D: -1	E: -5	F: 82*

29) CC/C(=N/NC(=O)CCC(=O)Nc1ccccc1OC)c1ccccc1
  A: 3	B: -5	C: .	D: .	E: -6	F: -1

30) Cc1cc2nnc(SCC(=O)NCc3ccco3)n2c2ccccc12
  A: 2	B: -19	C: 51*	D: 9.8*	E: 25	F: 2

31) COCCc1ccc(OC2(C)CCN(Cc3cccc(OCOC)c3)C2)cc1 (configuration not stated)
  A: -1	B: -2	C: 1	D: 2	E: -2	F: -25

32) O=[N+]([O-])c1cccc(C=NNc2ccc3ccccc3n2)c1O
  A: .	B: .	C: 28	D: 3	E: .	F: 81*

33) O=C(N/N=C/c1ccc([N+](=O)[O-])cc1)c1cccs1
  A: -7	B: -1	C: -78	D: -1	E: -8	F: -79

34) O=C(N/N=C/c1cccc([N+](=O)[O-])c1O)c1cccs1
  A: .	B: .	C: 69*	D: .	E: .	F: -1

35) O=C(N/N=C/C=C/c1ccccc1)c1ccc(Br)cc1
  A: 4	B: -13	C: .	D: .	E: 15	F: .

36) C[C@H](CO)N1C[C@H](C)[C@H](CN(C)CC2CCCCC2)OCCCC[C@H](C)Oc2ccc(NC(=O)Nc3cccc4ccccc34)cc2C1=O
  A: 7	B: -2	C: 92*	D: -2	E: -33[16.7 µM]	F: -4

37) C[C@@H]1CCCCO[C@H](CN(C)CC2CCCCC2)[C@H](C)CN([C@@H](C)CO)C(=O)c2cc(NC(=O)Nc3cccc4ccccc34)ccc2O1
  A: 8	B: 11	C: 19	D: -4	E: -31[16.7 µM]	F: -10

38) C[C@@H]1CCCCO[C@@H](CN(C)CC2CCCCC2)[C@@H](C)CN([C@@H](C)CO)C(=O)c2cc(NC(=O)Nc3cccc4ccccc34)ccc2O1
  A: 2	B: 15	C: 77*	D: -3	E: -31[16.7 µM]	F: 7

39) CC(C)NC(=O)N(C)C[C@@H]1Oc2ccc(NC(=O)Cc3cn(C)c4ccccc34)cc2C(=O)N([C@H](C)CO)C[C@H]1C
  A: 26*	B: 9	C: 11	D: 2	E: 14[16.7 µM]	F: 2

40) CC(C)NC(=O)N(C)C[C@@H]1Oc2ccc(NC(=O)Cc3cn(C)c4ccccc34)cc2C(=O)N([C@@H](C)CO)C[C@@H]1C
  A: 3	B: 1	C: -2	D: 2	E: -3[16.7 µM]	F: 5
